Bridge positions count the residues as written; N and C are the ends. Peptide text beside a SMILES is read from it.
What was measured:
[1] = target: Herceptin (human IgG1) (human); assay: SPR
[2] = target: Herceptin (human IgG1) (human); assay: ITC
Herceptin (human IgG1) = Herceptin (human IgG1) (Homo sapiens, UniProt P01857); assay: SPR assay of binding kinetics to immobilized Herceptin; settings: for koff / kon: pH 7.4
rat IgG2a = assay: SPR negative control with other species antibody; format: binding

15-IgBP (peptide)
Kd [1]: 0.267 µM
Kd [2]: 0.21 µM

15-Lys8Ala(t-Bu) (peptide)
Kd [1]: 0.0156 µM

15-Lys8Arg (peptide)
Kd [1]: 0.0291 µM

15-Lys8Cha (peptide)
Kd [1]: 0.017 µM

15-Lys8Dab (peptide)
Kd [1]: 0.0689 µM

15-Lys8Dab(Ac) (peptide)
Kd [1]: 0.116 µM

15-Lys8Leu (peptide)
Kd [1]: 0.00819 µM
Kd [2]: 0.012 µM

15-Lys8Nle (peptide)
Kd [1]: 0.0367 µM

15-Lys8Nva (peptide)
Kd [1]: 0.0446 µM

15-Lys8Orn (peptide)
Kd [1]: 0.487 µM

15-Lys8Orn(Ac) (peptide)
Kd [1]: 0.138 µM

15-Lys8Tle (peptide)
Kd [1]: 0.326 µM

15-Lys8Val (peptide)
Kd [1]: 0.0778 µM

CC(=O)NCC(=O)N1CCC[C@H]1C(=O)N[C@@H](CC(=O)O)C(=O)N[C@H]1CSSC[C@@H](C(=O)N[C@H](C(N)=O)[C@@H](C)O)NC(=O)[C@H](Cc2c[nH]c3ccccc23)NC(=O)[C@H](C(C)C)NC(=O)[C@H](CC(C)C)NC(=O)[C@H](CCC(=O)O)NC(=O)CNC(=O)[C@H](CCCCN)NC(=O)[C@H](Cc2c[nH]cn2)NC(=O)[C@H](Cc2ccc(O)cc2)NC(=O)[C@H](C)NC1=O [1–15]
koff (Herceptin (human IgG1)): 0.929 ± 0.002 s⁻¹
kon (Herceptin (human IgG1)): 567000 ± 3000 M⁻¹ s⁻¹

CC(=O)NCC(=O)N1CCC[C@H]1C(=O)N[C@@H](CC(=O)O)C(=O)N[C@H]1CSSC[C@@H](C(=O)N[C@H](C(=O)N[C@@H](Cc2ccccc2)C(N)=O)[C@@H](C)O)NC(=O)[C@H](Cc2c[nH]c3ccccc23)NC(=O)[C@H](C(C)C)NC(=O)[C@H](CC(C)C)NC(=O)[C@H](CCC(=O)O)NC(=O)CNC(=O)[C@H](CCCCN)NC(=O)[C@H](Cc2c[nH]cn2)NC(=O)[C@H](Cc2ccc(O)cc2)NC(=O)[C@H](C)NC1=O [1–16]
koff (Herceptin (human IgG1)): 0.546 ± 0.001 s⁻¹
kon (Herceptin (human IgG1)): 778000 ± 3000 M⁻¹ s⁻¹

CC(=O)N1CCC[C@H]1C(=O)N[C@@H](CC(=O)O)C(=O)N[C@H]1CSSC[C@@H](C(=O)N[C@H](C(=O)N[C@@H](Cc2ccccc2)C(N)=O)[C@@H](C)O)NC(=O)[C@H](Cc2c[nH]c3ccccc23)NC(=O)[C@H](C(C)C)NC(=O)[C@H](CC(C)C)NC(=O)[C@H](CCC(=O)O)NC(=O)CNC(=O)[C@H](CCCCN)NC(=O)[C@H](Cc2c[nH]cn2)NC(=O)[C@H](Cc2ccc(O)cc2)NC(=O)[C@H](C)NC1=O [2–16]
koff (Herceptin (human IgG1)): 0.473 ± 0.002 s⁻¹
kon (Herceptin (human IgG1)): 687000 ± 5000 M⁻¹ s⁻¹

CC(=O)N1CCC[C@H]1C(=O)N[C@@H](CC(=O)O)C(=O)N[C@H]1CSSC[C@@H](C(=O)N[C@H](C(=O)N[C@@H](Cc2ccccc2)C(=O)N[C@@H](Cc2c[nH]cn2)C(N)=O)[C@@H](C)O)NC(=O)[C@H](Cc2c[nH]c3ccccc23)NC(=O)[C@H](C(C)C)NC(=O)[C@H](CC(C)C)NC(=O)[C@H](CCC(=O)O)NC(=O)CNC(=O)[C@H](CCCCN)NC(=O)[C@H](Cc2c[nH]cn2)NC(=O)[C@H](Cc2ccc(O)cc2)NC(=O)[C@H](C)NC1=O [2–17]
koff (Herceptin (human IgG1)): 0.187 ± 0.002 s⁻¹
kon (Herceptin (human IgG1)): 732000 ± 1000 M⁻¹ s⁻¹

CC(=O)N[C@H]1CSSC[C@@H](C(=O)N[C@H](C(=O)N[C@@H](Cc2ccccc2)C(=O)N[C@@H](Cc2c[nH]cn2)C(N)=O)[C@@H](C)O)NC(=O)[C@H](Cc2c[nH]c3ccccc23)NC(=O)[C@H](C(C)C)NC(=O)[C@H](CC(C)C)NC(=O)[C@H](CCC(=O)O)NC(=O)CNC(=O)[C@H](CCCCN)NC(=O)[C@H](Cc2c[nH]cn2)NC(=O)[C@H](Cc2ccc(O)cc2)NC(=O)[C@H](C)NC1=O [4–17]
koff (Herceptin (human IgG1)): 1.05 s⁻¹
kon (Herceptin (human IgG1)): 716000 ± 3000 M⁻¹ s⁻¹

CC(=O)N[C@@H](CC(=O)O)C(=O)N[C@H]1CSSC[C@@H](C(=O)N[C@H](C(=O)N[C@@H](Cc2ccccc2)C(=O)N[C@@H](Cc2c[nH]cn2)C(N)=O)[C@@H](C)O)NC(=O)[C@H](Cc2c[nH]c3ccccc23)NC(=O)[C@H](C(C)C)NC(=O)[C@H](CC(C)C)NC(=O)[C@H](CCC(=O)O)NC(=O)CNC(=O)[C@H](CCCCN)NC(=O)[C@H](Cc2c[nH]cn2)NC(=O)[C@H](Cc2ccc(O)cc2)NC(=O)[C@H](C)NC1=O [15-IgBP] (Ac-DCAYHKGELVWCTFH-NH2; disulfide 2-12)
residence time calculated from the koff value (Herceptin (human IgG1); calculated from SPR koff on Herceptin): 5 s
koff (Herceptin (human IgG1)): 0.198 ± 0.001 s⁻¹
kon (Herceptin (human IgG1)): 741000 ± 3000 M⁻¹ s⁻¹
affinity (kon and koff also) against rat IgG2a (rat IgG2a): did not show detectable affinity

CC(=O)NCC(=O)N1CCC[C@H]1C(=O)N[C@@H](C)C(=O)N[C@H]1CSSC[C@@H](C(=O)N[C@H](C(=O)N[C@@H](Cc2ccccc2)C(=O)N[C@@H](Cc2c[nH]cn2)C(N)=O)[C@@H](C)O)NC(=O)[C@H](Cc2c[nH]c3ccccc23)NC(=O)[C@H](C(C)C)NC(=O)[C@H](CC(C)C)NC(=O)[C@H](CCC(=O)O)NC(=O)CNC(=O)[C@H](CCCCN)NC(=O)[C@H](Cc2c[nH]cn2)NC(=O)[C@H](Cc2ccc(O)cc2)NC(=O)[C@H](C)NC1=O [Asp3Ala]
koff (Herceptin (human IgG1)): 0.495 ± 0.001 s⁻¹
kon (Herceptin (human IgG1)): 649000 ± 3000 M⁻¹ s⁻¹

CC(=O)N[C@@H](C)C(=O)N1CCC[C@H]1C(=O)N[C@@H](CC(=O)O)C(=O)N[C@H]1CSSC[C@@H](C(=O)N[C@H](C(=O)N[C@@H](Cc2ccccc2)C(=O)N[C@@H](Cc2c[nH]cn2)C(N)=O)[C@@H](C)O)NC(=O)[C@H](Cc2c[nH]c3ccccc23)NC(=O)[C@H](C(C)C)NC(=O)[C@H](CC(C)C)NC(=O)[C@H](CCC(=O)O)NC(=O)CNC(=O)[C@H](CCCCN)NC(=O)[C@H](Cc2c[nH]cn2)NC(=O)[C@H](Cc2ccc(O)cc2)NC(=O)[C@H](C)NC1=O [Gly1Ala]
koff (Herceptin (human IgG1)): 0.191 s⁻¹
kon (Herceptin (human IgG1)): 768000 ± 2000 M⁻¹ s⁻¹

CC(=O)NCC(=O)N1CCC[C@H]1C(=O)N[C@@H](CC(=O)O)C(=O)N[C@H]1CSSC[C@@H](C(=O)N[C@H](C(=O)N[C@@H](Cc2ccccc2)C(=O)N[C@@H](Cc2c[nH]cn2)C(N)=O)[C@@H](C)O)NC(=O)[C@H](Cc2c[nH]c3ccccc23)NC(=O)[C@H](C(C)C)NC(=O)[C@H](CC(C)C)NC(=O)[C@H](CCC(=O)O)NC(=O)[C@H](C)NC(=O)[C@H](CCCCN)NC(=O)[C@H](Cc2c[nH]cn2)NC(=O)[C@H](Cc2ccc(O)cc2)NC(=O)[C@H](C)NC1=O [Gly9Ala] (Ac-GPDCAYHKAELVWCTFH-NH2; disulfide 4-14)
koff (Herceptin (human IgG1)): 0.434 ± 0.001 s⁻¹
kon (Herceptin (human IgG1)): 252000 ± 1000 M⁻¹ s⁻¹
times lower kon value than the original peptide (1) (Herceptin (human IgG1); ratio of SPR kon values): 3.6 times

CC(=O)NCC(=O)N1CCC[C@H]1C(=O)N[C@@H](CC(=O)O)C(=O)N[C@H]1CSSC[C@@H](C(=O)N[C@H](C(=O)N[C@@H](Cc2ccccc2)C(=O)N[C@@H](C)C(N)=O)[C@@H](C)O)NC(=O)[C@H](Cc2c[nH]c3ccccc23)NC(=O)[C@H](C(C)C)NC(=O)[C@H](CC(C)C)NC(=O)[C@H](CCC(=O)O)NC(=O)CNC(=O)[C@H](CCCCN)NC(=O)[C@H](Cc2c[nH]cn2)NC(=O)[C@H](Cc2ccc(O)cc2)NC(=O)[C@H](C)NC1=O [His17Ala]
koff (Herceptin (human IgG1)): 0.497 ± 0.001 s⁻¹
kon (Herceptin (human IgG1)): 714000 ± 1000 M⁻¹ s⁻¹

CC(=O)NCC(=O)N1CCC[C@H]1C(=O)N[C@@H](CC(=O)O)C(=O)N[C@H]1CSSC[C@@H](C(=O)N[C@H](C(=O)N[C@@H](Cc2ccccc2)C(=O)N[C@@H](Cc2c[nH]cn2)C(N)=O)[C@@H](C)O)NC(=O)[C@H](Cc2c[nH]c3ccccc23)NC(=O)[C@H](C(C)C)NC(=O)[C@H](CC(C)C)NC(=O)[C@H](CCC(=O)O)NC(=O)CNC(=O)[C@H](C)NC(=O)[C@H](Cc2c[nH]cn2)NC(=O)[C@H](Cc2ccc(O)cc2)NC(=O)[C@H](C)NC1=O [Lys8Ala]
koff (Herceptin (human IgG1)): 0.106 s⁻¹
kon (Herceptin (human IgG1)): 622000 ± 2000 M⁻¹ s⁻¹

CC(=O)NCC(=O)N1CCC[C@H]1C(=O)N[C@@H](CC(=O)O)C(=O)N[C@H]1CSSC[C@@H](C(=O)N[C@H](C(=O)N[C@@H](C)C(=O)N[C@@H](Cc2c[nH]cn2)C(N)=O)[C@@H](C)O)NC(=O)[C@H](Cc2c[nH]c3ccccc23)NC(=O)[C@H](C(C)C)NC(=O)[C@H](CC(C)C)NC(=O)[C@H](CCC(=O)O)NC(=O)CNC(=O)[C@H](CCCCN)NC(=O)[C@H](Cc2c[nH]cn2)NC(=O)[C@H](Cc2ccc(O)cc2)NC(=O)[C@H](C)NC1=O [Phe16Ala]
koff (Herceptin (human IgG1)): 0.552 s⁻¹
kon (Herceptin (human IgG1)): 582000 ± 2000 M⁻¹ s⁻¹

CC(=O)NCC(=O)N[C@@H](C)C(=O)N[C@@H](CC(=O)O)C(=O)N[C@H]1CSSC[C@@H](C(=O)N[C@H](C(=O)N[C@@H](Cc2ccccc2)C(=O)N[C@@H](Cc2c[nH]cn2)C(N)=O)[C@@H](C)O)NC(=O)[C@H](Cc2c[nH]c3ccccc23)NC(=O)[C@H](C(C)C)NC(=O)[C@H](CC(C)C)NC(=O)[C@H](CCC(=O)O)NC(=O)CNC(=O)[C@H](CCCCN)NC(=O)[C@H](Cc2c[nH]cn2)NC(=O)[C@H](Cc2ccc(O)cc2)NC(=O)[C@H](C)NC1=O [Pro2Ala]
koff (Herceptin (human IgG1)): 0.2 ± 0.002 s⁻¹
kon (Herceptin (human IgG1)): 635000 ± 2000 M⁻¹ s⁻¹

CC(=O)NCC(=O)N1CCC[C@H]1C(=O)N[C@@H](CC(=O)O)C(=O)N[C@H]1CSSC[C@@H](C(=O)N[C@@H](C)C(=O)N[C@@H](Cc2ccccc2)C(=O)N[C@@H](Cc2c[nH]cn2)C(N)=O)NC(=O)[C@H](Cc2c[nH]c3ccccc23)NC(=O)[C@H](C(C)C)NC(=O)[C@H](CC(C)C)NC(=O)[C@H](CCC(=O)O)NC(=O)CNC(=O)[C@H](CCCCN)NC(=O)[C@H](Cc2c[nH]cn2)NC(=O)[C@H](Cc2ccc(O)cc2)NC(=O)[C@H](C)NC1=O [Thr15Ala]
koff (Herceptin (human IgG1)): 0.53 ± 0.001 s⁻¹
kon (Herceptin (human IgG1)): 851000 ± 4000 M⁻¹ s⁻¹

— paper PMC6740044 (ACS Omega, 2019)
